The target of data set [1] is T1, Lys(Dnp)-ATNATARPRIVGG-Lys(Abz).
T1 chain: KATNATARPRIVGGK

Data set [2] concerns the target T2, Lys(Dnp)-ATNATAYPRIVGG-Lys(Abz).
T2 chain: KATNATAYPRIVGGK

Data set [3] concerns the target human α-thrombin (FIIa), P00734.

B1: Human plasma purified Factor Xa (protein)
chain 1: ANSFLEEMKKGHLERECMEETCSYEEAREVFEDSDKTNEFWNKYKDGDQCETSPCQNQGKCKDGLGEYTCTCLEGFEGKNCELFTRKLCSLDNGDCDQFCHEEQNSVVCSCARGYTLADNGKACIPTGPYPCGKQTLER
chain 2: IVGGQECKDGECPWQALLINEENEGFCGGTILSEFYILTAAHCLYQAKRFKVRVGDRNTEQEEGGEAVHEVEVVIKHNRFTKETYDFDIAVLRLKTPITFRMNVAPACLPERDWAESTLMTQKTGIVSGFGRTHEKGRQSTRLKMLEVPYVDRNSCKLSSSFIITQNMFCAGYDTKQEDACQGDSGGPHVTRFKDTYFVTGIVSWGEGCARKGKYGIYTKVTAFLKWIDRSMKTRGLPKAKSHAPEVITSSPLK
Turning to B1, the FXa kcat/KM in data set [1] was determined as 350 M⁻¹ s⁻¹; in data set [2], 26 M⁻¹ s⁻¹.

B2: FX [191-194]>[NATMTPR]-HPC4 (protein)
chain: ANSFLEEMKKGHLERECMEETCSYEEAREVFEDSDKTNEFWNKYKDGDQCETSPCQNQGKCKDGLGEYTCTCLEGFEGKNCELFTRKLCSLDNGDCDQFCHEEQNSVVCSCARGYTLADNGKACIPTGPYPCGKQTLERRKRSVAQATSSSGEAPDSITWKPYDAADLDPTENPFDLLDFNQTQPERGDNNATMTPRIVGGQECKDGECPWQALLINEENEGFCGGTILSEFYILTAAHCLYQAKRFKVRVGDRNTEQEEGGEAVHEVEVVIKHNRFTKETYDFDIAVLRLKTPITFRMNVAPACLPERDWAESTLMTQKTGIVSGFGRTHEKGRQSTRLKMLEVPYVDRNSCKLSSSFIITQNMFCAGYDTKQEDACQGDSGGPHVTRFKDTYFVTGIVSWGEGCARKGKYGIYTKVTAFLKWIDRSMKTRGLPKAKSHAPEVITSSPLKDQVDPRLIDGK
For the protein B2, the kcat/KM – broadly, the turnover number divided by the Michaelis constant – in data set [3] is given as “No Activity”.

B3: FX [191-194]>[MTPR]-HPC4 (protein)
chain: ANSFLEEMKKGHLERECMEETCSYEEAREVFEDSDKTNEFWNKYKDGDQCETSPCQNQGKCKDGLGEYTCTCLEGFEGKNCELFTRKLCSLDNGDCDQFCHEEQNSVVCSCARGYTLADNGKACIPTGPYPCGKQTLERRKRSVAQATSSSGEAPDSITWKPYDAADLDPTENPFDLLDFNQTQPERGDNMTPRIVGGQECKDGECPWQALLINEENEGFCGGTILSEFYILTAAHCLYQAKRFKVRVGDRNTEQEEGGEAVHEVEVVIKHNRFTKETYDFDIAVLRLKTPITFRMNVAPACLPERDWAESTLMTQKTGIVSGFGRTHEKGRQSTRLKMLEVPYVDRNSCKLSSSFIITQNMFCAGYDTKQEDACQGDSGGPHVTRFKDTYFVTGIVSWGEGCARKGKYGIYTKVTAFLKWIDRSMKTRGLPKAKSHAPEVITSSPLKDQVDPRLIDGK
Consider B3, for which, in data set [3], the KM (commonly the concentration of substrate that gives half-maximal velocity) amounted to 1.13 µM, the catalytic constant (kcat) (commonly the maximal rate divided by the concentration of active sites) is 0.0014 s⁻¹ and the kcat/KM is 1400 M⁻¹ s⁻¹.

The values are drawn from patent US20160024487.
